Shown are actives, neighbours in structure and some others; about 3.7% of the full set was active somewhere.
miR-21 FLuc: miR-21 reporter, rising signal | HeLa miR-21 FLuc reporter, luciferase, 48 h | Potency, µM (top dose mostly 38.3 µM) | 340,000 tested, under 10 active | AID 2288; active = well fitted rising curve with a large enough effect; inconclusive = small, poorly fitted or top-dose-only effect; inactive = no such curve, though single readings can be large or run the other way;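 note: miR-21 action dims this reporter so a rising signal means less miR-21 action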
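HeLa cells endogenously expressing miR-21, stably carrying CMV-driven firefly luciferase with a downstream miR-21 binding site, 2000 cells/well. Titrations up to approximately 40 uM, 48 hours; luciferase luminescence read.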
A549 viability: kills or reduces viability of A549 cells in Nrf2 counter-screen | A549 ARE-Fluc cells, CellTiter-Fluor viability, 18-24 h | Potency, µM (doses to about 46 µM), hits mostly inhibitors | 0.16% of 390,000 active
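A549 ARE-Fluc cells in 5% FBS OPTI-MEM, 5000 cells/well, rested 2 h then exposed to compounds in concentration-response for 18-24 h at 37 °C. Viability by CellTiter-Fluor fluorescence (Ex 405/Em 525) after 30 min; luciferase luminescence (BugLite, 15 min, RT) read afterwards.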
p53 reactivation: restores transcriptional activity of mutant p53; H1299 p53-A138V BP100-luciferase reporter, luminescence, 24 h; Potency, µM (highest dose often 92.2 µM), most hits filed as activators; 0.063% of 320,000 active; AID 504706; also: nearly all actives have a fitted effect of over 45% in size
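p53-null H1299 cells stably carrying temperature-sensitive p53-A138V and a BP100-luciferase reporter were pinned with compounds (4-point, 1:5 series) and held 24 hrs at 37 deg C. Luminescence was read 10 min after detection reagent.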
ClpP mod: qHTS Assay for Activators of ClpP | ATP-dependent Clp protease proteolytic subunit (Bacillus subtilis (strain 168)), P80244 | 1.9% of 340,000 active | Potency, µM (doses to about 57.5 µM) | purified B. subtilis ClpP, FRET peptide cleavage, 20 min | AID 651965, 2013; active = well fitted falling curve with a large enough effect; inconclusive = small, poorly fitted or top-dose-only effect; inactive = no such curve, though single readings can be large or run the other way; also: the source files actives as falling curves though it sought activators and does not explain the sign; nearly all actives have a fitted effect of over 65% in size
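Purified B. subtilis ClpP, 10 microg/mL final in Tris/HCl pH8 with KCl, BSA, glycerol and Tween-20, cleaved an Abz/nitrotyrosine-quenched decapeptide. Fluorescence (ex 320, em 430) was read at 0 and 20 min at room temperature. Delta was normalized to 5.8 microM ADEP and DMSO/no-enzyme controls.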
Nrf2 block: blocks Nrf2 signaling | A549 ARE-Fluc reporter, luciferase luminescence, 18-24 h | Potency, µM (titrated, usually from 46 µM), usual class: inhibitors | AID 504444 | 2.1% of 360,000 active; also: nearly all actives have a fitted effect of over 60% in size
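In this cell-based qHTS, ARE-driven firefly luciferase in A549 cells reports Nrf2 activity; the luminescent signal after BugLite lysis is the measured value, with a prior CellTiter-Fluor read for cell health.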
Nrf2 activator: Nrf2 pathway activation; AREc32 ARE-luciferase reporter (MCF7-derived line), luminescence, 24 h; Potency, µM (titrated, usually from 46.1 µM), usual class: activators; 0.31% of 410,000 active; AID 624171; also: nearly all actives have a fitted effect of over 65% in size
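Each well held 1000 AREc32 cells, which were incubated with compound for 24 hr at 37 deg C after overnight attachment, and ARE reporter activity was quantified by firefly luciferase luminescence.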
Numbers stand for hits; – = inactive; ? = inconclusive; · = no result given; [ ] = another dose, or the depositor's remark. Unless noted, calls follow the shape of the dose curve; as a rule, active = well fitted curve in the direction sought with a large enough effect; inconclusive = small, poorly fitted or top-dose-only effect, or another doubt; inactive = no such curve, though single readings can be large; an effect the other way counts as inactive or inconclusive.

Amino acid sequences for entries named in this document (tags omitted).
ATP-dependent Clp protease proteolytic subunit (Bacillus subtilis (strain 168)), P80244, UniProt P80244, whole entry, looked up: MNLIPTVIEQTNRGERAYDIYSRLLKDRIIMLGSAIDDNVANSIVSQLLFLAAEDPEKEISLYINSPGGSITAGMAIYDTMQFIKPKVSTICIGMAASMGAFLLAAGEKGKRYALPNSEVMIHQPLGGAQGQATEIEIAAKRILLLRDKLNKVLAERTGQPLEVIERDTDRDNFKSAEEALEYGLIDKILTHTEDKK

SMILES | miR-21 FLuc | A549 viability | p53 reactivation | ClpP mod | Nrf2 block | Nrf2 activator
CC(C)(C)NC(=O)CN(C(=O)c1ccc(CN2CCOCC2)o1)c1ccc2c(c1)OCCO2 | – | – | – | 13µM | – | –
COC(=O)c1cc(OC)c(OC)cc1NC(=O)C(C)Sc1ccc(C)cc1 (stereo not given) | – | – | – | – | ? | –
COc1ccc([N+](=O)[O-])cc1NC(=O)C(C)Sc1ccc(C)cc1 (stereo not given) | – | – | – | – | 18µM | –
COc1ccc([N+](=O)[O-])cc1NC(=O)CSc1nc(C)cc(C)n1 | – | – | – | – | – | –
COc1ccc([N+](=O)[O-])cc1NC(=O)C(C)c1ccccc1 (stereo not given) | – | – | – | – | – | –
O=C(CN1CCN(c2ccc(O)cc2)CC1)Nc1cc([N+](=O)[O-])ccc1Cl | – | – | – | 16µM | – | –
COc1ccc([N+](=O)[O-])cc1NC(=O)CSc1ccc2ccccc2c1 | – | – | – | · | 18µM | ?
CC(=O)N1CCN(CC(=O)Nc2cc([N+](=O)[O-])ccc2Cl)CC1 | – | – | – | · | – | –
COc1ccc([N+](=O)[O-])cc1NC(=O)C(C)NNC(=O)c1cccc([N+](=O)[O-])c1 (stereo not given) | · | – | – | – | 16µM | –
CCCCn1c(CNC(=O)c2ccc(OC)cc2)nnc1SCC(=O)Nc1ccccc1 | – | – | · | – | – | –
CN(C)/C=C/C(=O)c1ccc(-c2ccc(Cl)cc2Cl)o1 | – | – | – | – | ? | –
O=C(Nc1cccc(F)c1)c1ccc2c(c1)N(Cc1ccccc1)C(=O)c1ccccc1S2(=O)=O | – | – | · | – | – | –
COc1ccc([N+](=O)[O-])cc1NC(=S)NC(NC(=O)C(c1ccccc1)c1ccccc1)C(Cl)(Cl)Cl (stereo not given) | ? | ? | ? | – | 15µM | –
O=C(NC(NC(=S)Nc1c(Cl)cccc1Cl)C(Cl)(Cl)Cl)c1cccc([N+](=O)[O-])c1 (stereo not given) | ? | ? | – | – | 16µM | –
O=C(CSc1cccc[n+]1[O-])Nc1cc([N+](=O)[O-])ccc1Cl | – | – | – | – | – | 10µM
FC(F)(F)COc1ccc(-c2nnc(SCc3ccccc3)o2)cn1 | – | – | – | 18µM | – | –
CCOC(=O)c1ccc2c(c1)nc(C1CCN(S(=O)(=O)c3cccs3)CC1)n2CC | – | ? | – | – | 26µM | –
CCOC(=O)CSc1nc2cc(OCC)ccc2cc1C#N | – | – | ? | 16µM | – | –
CCOc1ccc2cc(C#N)c(SCC(=O)OCc3ccccc3)nc2c1 | · | – | · | – | ? | ·
Cc1ccc2cc(C#N)c(SCC(=O)NNC(=O)Cc3ccccc3)nc2c1 | – | – | – | 28µM | – | –
CCc1nc(SCC(=O)N2CCc3cc(OC)c(OC)cc3C2)c(C#N)cc1C | · | – | · | 32µM | – | –
CCOC(=O)CSc1nc2cc(OC)c(OC)cc2cc1C#N | · | – | · | 32µM | – | ·
CCOc1ccc2nc(N(Cc3cccnc3)C(=O)c3ccc4c(c3)OCCO4)sc2c1 | – | – | · | – | · | –
Cc1c(C)c2cc3c(c(C)c2oc1=O)OCN(CCc1ccccc1)C3 | – | – | · | – | – | –
CN1CC[n+]2cnc3ccccc3c21 | – | – | – | 28µM | – | –
SMILES | miR-21 FLuc | A549 viability | p53 reactivation | ClpP mod | Nrf2 block | Nrf2 activator
CCOc1ccc(C(=O)Nc2nc3ccccc3[nH]2)cc1OCC | – | – | – | · | 10µM | –
COC(=O)c1ccccc1NC(=O)C1=C(C)C(=O)OC12CCCCCC2 | ? | – | · | – | – | –
Fc1ccc(C2=NN(c3ccccc3)C(c3ccco3)C2)cc1 (stereo not given) | – | ? | – | – | – | –
Cc1ccc(C2CC(c3ccccc3)=NN2c2ccccc2)o1 (stereo not given) | – | – | ? | 25µM | – | –
COCCNC(=O)CCn1c(=O)c2cc(OC)c(OC)cc2n(CC(=O)Nc2ccc(Cl)cc2F)c1=O | – | – | · | – | –[9.27 µM] | –
C#CC[N+](CC)(CC)CC#Cc1cccc(Cl)c1 | – | – | – | – | 10µM | –
CCc1ccc(NC(=O)c2sc(-n3nc(C)c(CCC(C)C)c3C)nc2C)cc1 | – | – | · | ? | – | –
CCOc1cc(NC(=O)CCl)c(OCC)cc1NC(=O)CCl | ? | – | – | · | ? | 7.1µM
CCOc1ccccc1NC(=O)CCC(=O)Nc1ccccc1OCC | – | – | – | – | – | –
CCN(CCO)c1ccc(N=Nc2cc(C)[nH]n2)cc1 | – | 9.2µM | – | – | ? | –
COc1ccc(NC(=O)CSc2nc3nc(C)c(Cc4ccccc4)c(C)n3n2)cc1OC | – | – | · | – | · | –
COC(=O)/C=C/c1ccsc1NC(C)=O | – | – | – | · | – | 13µM
NC(=O)c1ccsc1NC(=O)COC(=O)/C=C/c1ccccc1 | · | – | – | · | – | –
CCCN(C(=O)CCc1nc(-c2ccc(OC)cc2)no1)c1ccccc1F | – | – | · | – | ? | –
Cc1c(C(=O)NCCSCc2c(Cl)cccc2Cl)cccc1[N+](=O)[O-] | – | – | – | – | 9.2µM | –
Cc1ccc(C(=O)OCc2nnc(-c3ccccc3)o2)o1 | – | – | – | – | – | –
CC(=O)c1c(C)[nH]c(C(=O)OCc2ccc(F)cc2Cl)c1C | – | – | – | – | 13µM | –
CC(=O)c1c(C)[nH]c(C(=O)OCc2cccc(Cl)c2)c1C | – | – | – | – | ? | –
CC(=O)c1c(C)[nH]c(C(=O)OCc2nnc(-c3ccccc3)o2)c1C | – | – | – | – | 21µM | –
COc1ccc2oc(C(=O)OCc3nnc(-c4ccccc4)o3)c(C)c2c1 | · | – | – | 25µM | – | –
Cc1ccc(-c2nnc(Nc3cccc(C(F)(F)F)c3)c3ccccc23)cc1S(=O)(=O)N1CCOCC1 | – | – | · | ? | · | –
CCCCCCCCN1C(=O)[C@H](CC(=O)NCC2CCCCC2)C[C@@]2(C(=O)OC)CCCCC=C12 | · | · | · | – | · | –
O=C(CSC1=Nc2ccccc2C2=NC(Cc3ccccc3)C(=O)N12)Nc1cccc(Cl)c1 (stereo not given) | – | – | · | – | · | –
Cc1ccc(C(=O)OCc2cc(=O)n3nc(CC(C)C)sc3n2)cc1 | – | – | · | – | – | –
Cc1ccc(NC(=O)CC2SC(=O)N(c3ccccc3)C2=O)cc1 (stereo not given) | – | – | – | 28µM | – | –
Cc1cccc(NC(=O)CC2SC(=O)N(c3ccccc3)C2=O)c1 (stereo not given) | – | – | – | 35µM | – | –
